Laboratory results published in publication PMC7041945, “Misfolded proteins bind and activate death receptor 5 to trigger apoptosis during unresolved endoplasmic reticulum stress” (eLife, 2020).

Sequences of proteins named here, by UniProt entry; tags and fusion partners are left off. Residues count along the entry.
UniProt O14763, 72-213: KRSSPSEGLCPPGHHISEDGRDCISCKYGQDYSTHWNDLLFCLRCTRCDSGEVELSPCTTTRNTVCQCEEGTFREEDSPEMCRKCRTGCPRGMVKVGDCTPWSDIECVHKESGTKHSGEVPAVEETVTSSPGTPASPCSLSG

Target: T1, DR5L ECD (Homo sapiens, UniProt O14763)
T1 construct: Gp67 (glycoprotein) signal peptide (N); made in house; host or cells: SF21 insect cells (baculovirus, Bac-to-Bac)
Assay: Size exclusion chromatography of DR5 ECD and peptide complex
Assay type: biochemical
Settings: 25 μM DR5L ECD; TRAIL 25 uM
Protocol: The specified concentration of protein and peptide were incubated overnight at 4°C. The following day, 200 ul of each sample was loaded onto a SuperDex200 10/300 GL column equilibrated with 30 mM HEPES pH 7.2, 150 mM NaCl at a flow rate of 0.5 ml/min. Fractions were collected in 1 ml aliquots.
For subsequent analysis of each fraction by SDS-PAGE, 1 ml fractions were concentrated to 50 μl using a 3 kDa MW cutoff and loaded onto a gel. The fluorescein-labeled peptide was visualized using the fluorescence detection mode on a Typhoon 9400 Variable Mode Imager (GE Healthcare). Protein was visualized by staining with Coomassie.

## TRAIL: canonical extracellular ligand of DR5 (Apo2L/TRAIL)
  co-elution of TRAIL with DR5 ECD by size exclusion: both proteins co-eluted near the void volume
